{
  "source": "patent US9399032B2",
  "about": "“Methods and compositions for treating degenerative and ischemic disorders” (The General Hospital Corporation, priority 2009, dated 2016)",
  "key": {"[1]": {"tested_on": "MCH58 fibroblasts", "settings": "human"}, "[2]": {"tested_on": "MCH58 fibroblasts", "experiment": "Glucose versus galactose cell growth screen (metabolic state-dependent lethality)"}},
  "note": "Several values for one entry are separate records, joined by “and”; a condition that tells them apart may be missing. Equal entries are not always repeated.",
  "data": [
    {"substance": "Antimycin A", "values": [
      {"measurement": "LD50 in galactose-rich media as compared to glucose-rich media", "setting": "[1]", "value": "at least four orders of magnitude lower"},
      {"measurement": "Sglu/gal (log10 fold change) Score", "setting": "[2]", "value": "0.70 and 0.87"}
    ]}
  ]
}
